Measured values published in patent publication US20080015237A1 (ASTRAZENECA AB, priority 2006, published 2008).

By UniProt entry, the sequences of proteins in these tests, tags left out.
UniProt P22460, whole entry: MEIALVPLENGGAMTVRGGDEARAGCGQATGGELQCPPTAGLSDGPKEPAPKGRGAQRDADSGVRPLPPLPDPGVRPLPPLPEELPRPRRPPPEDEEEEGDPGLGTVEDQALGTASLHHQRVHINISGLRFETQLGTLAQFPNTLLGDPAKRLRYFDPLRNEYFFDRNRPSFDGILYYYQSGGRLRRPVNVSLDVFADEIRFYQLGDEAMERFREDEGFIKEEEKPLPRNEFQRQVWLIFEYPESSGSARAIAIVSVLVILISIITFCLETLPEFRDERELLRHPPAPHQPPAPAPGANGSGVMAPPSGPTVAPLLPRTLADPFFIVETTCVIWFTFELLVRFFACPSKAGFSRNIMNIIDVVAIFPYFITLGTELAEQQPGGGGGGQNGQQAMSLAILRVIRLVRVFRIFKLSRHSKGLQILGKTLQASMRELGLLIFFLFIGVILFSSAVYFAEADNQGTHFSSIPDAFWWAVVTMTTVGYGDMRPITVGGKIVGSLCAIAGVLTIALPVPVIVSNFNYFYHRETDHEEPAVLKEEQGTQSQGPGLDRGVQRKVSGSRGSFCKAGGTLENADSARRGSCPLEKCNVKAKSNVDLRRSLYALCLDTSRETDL

Biological target: human Kv1.5 channel (Homo sapiens, UniProt P22460)
Assay: Test A: Rb+ efflux assay
Format: cell-based
Settings: CHO cells stably transfected with cDNA for human Kv1.5
Experimental: This assay identifies compounds that block the human Kv1.5 channel potassium channel heterologously expressed in Chinese Hamster Ovary (CHO) cells by means of Rb+ ion efflux using Flame Atomic Absorption Spectroscopy. For experimental studies, CHO cells stably transfected with cDNA for human Kv1.5 were grown as confluent layers in Falcon, 384-well tissue culture-treated black-walled clear-bottomed plates and the plates were incubated overnight at 37° C. in a cell culture incubator.
After incubating overnight the cell plates were washed and a buffer containing Rb+ ions were added to the cell plates. The plates were then incubated for another 3-4 hours in a CO2-incubator (37° C.). Following this incubation period plates were washed, compounds were added and subsequently a buffer containing elevated K+ concentrations were added in order to activate the Kv1.5 channel. Following a short incubation time, aliquots of the supernatants were transferred to supernatant plates for subsequent determination of the Rb+ content using Atomic Absorption Spectrometry (ICR8000 instrument, Aurora Biomed Inc.). The basal Rb+ efflux (conc. mg/L in wells receiving only wash buffer) was defined as 100% inhibition and the stimulated Rb+ efflux (conc. mg/L in wells receiving only buffer containing elevated concencentrations of K^+ ions) was defined as 0% inhibition.

- IC50: 3.3 µM
Structure (SMILES): CC(C)(C)NC(=O)C1c2ccccc2C(=O)N1Cc1ccccc1-c1ccccc1 (stereo not shown) [2-(biphenyl-2-ylmethyl)-N-tert-butyl-3-oxoisoindoline-1-carboxamide]
